# ChEMBL document CHEMBL4190229, “Growth Inhibition of Colon Cancer and Melanoma Cells by Versiol Derivatives from a Paraconiothyrium Species” (J Nat Prod, 2017)
# Assays:
# COLO 205 = experiment: Antiproliferative activity against human COLO205 cells after 48 hrs by XTT assay; format: functional, cell-based
# KM12 = experiment: Antiproliferative activity against human KM12 cells after 48 hrs by XTT assay; format: functional, cell-based
Compound,Activity (COLO 205),Activity (KM12)
CC(=O)CC/C=C(\C)[C@H](O)[C@H](C)C(=O)O[C@H]1C[C@H](C)C=C2C=C[C@@]3(C)O[C@@H](O)CC(=O)[C@]3(C)[C@H]21,Dose-dependent effect,Dose-dependent effect
CC(/C=C/C=C(\C)[C@H](O)[C@H](C)C(=O)O[C@H]1C[C@H](C)C=C2C=C[C@@]3(C)O[C@@H](O)CC(=O)[C@]3(C)[C@H]21)=C\C=C\C(=O)O,Dose-dependent effect,Dose-dependent effect
C/C(=C\C=C\[C@H](C)CC(=O)O)[C@H](O)[C@H](C)C(=O)O[C@H]1C[C@@H](C)[C@@H](O)c2ccc(C)c(C)c21,Dose-dependent effect,Dose-dependent effect
